# Reference: US4363805A, “Aminodesoxy-1.4;3.6-dianhydrohexitol nitrates and pharmaceutical composition” (Firma Willmar Schwabe, priority 1980, dated 1982)
# How the values were obtained:
# mongrel cats = assay: Inotropic and heart-circulatory effectiveness on narcotised cats, intravenous; assay type: in vivo, cat; details: 6 animals; for blood pressure before / dp/dt (inotropism) before / heart frequency before: before administration
# narcotised guinea pigs = assay: Blood pressure experiments on guinea pigs, i.v.; assay type: in vivo, guinea pig
compound,measurement,setting,value
O=[N+]([O-])O[C@H]1CO[C@H]2[C@@H]1OC[C@H]2O[N+](=O)[O-],blood pressure before,mongrel cats; 0.25 mg/kg i.v.,98.8 mm.Hg
same,dp/dt (inotropism) before,mongrel cats; 0.25 mg/kg i.v.,7650 mm.Hg/sec
same,heart frequency before,mongrel cats; 0.25 mg/kg i.v.,165.3 min⁻¹
same,blood pressure WD,mongrel cats; 0.25 mg/kg i.v.,13.0 min
same,blood pressure after,mongrel cats; 0.25 mg/kg i.v.,81.2 mm.Hg
same,blood pressure Δ,mongrel cats; 0.25 mg/kg i.v.,-17.6 mm.Hg
same,dp/dt (inotropism) after,mongrel cats; 0.25 mg/kg i.v.,8050 mm.Hg/sec
same,dp/dt (inotropism) Δ,mongrel cats; 0.25 mg/kg i.v.,+400 mm.Hg/sec
same,heart frequency after,mongrel cats; 0.25 mg/kg i.v.,171.7 min⁻¹
same,heart frequency Δ,mongrel cats; 0.25 mg/kg i.v.,+6.4 min^-1
same,blood pressure before,mongrel cats; 0.50 mg/kg i.v.,95.8 mm.Hg
same,dp/dt (inotropism) before,mongrel cats; 0.50 mg/kg i.v.,7333 mm.Hg/sec
same,heart frequency before,mongrel cats; 0.50 mg/kg i.v.,167.0 min⁻¹
same,blood pressure WD,mongrel cats; 0.50 mg/kg i.v.,16.5 min
same,blood pressure after,mongrel cats; 0.50 mg/kg i.v.,73.7 mm.Hg
same,blood pressure Δ,mongrel cats; 0.50 mg/kg i.v.,-22.2 mm.Hg
same,dp/dt (inotropism) after,mongrel cats; 0.50 mg/kg i.v.,7667 mm.Hg/sec
same,dp/dt (inotropism) Δ,mongrel cats; 0.50 mg/kg i.v.,+334 mm.Hg/sec
same,heart frequency after,mongrel cats; 0.50 mg/kg i.v.,173.3 min⁻¹
same,heart frequency Δ,mongrel cats; 0.50 mg/kg i.v.,+6.3 min^-1
same,blood pressure before,mongrel cats; 1.00 mg/kg i.v.,96.5 mm.Hg
same,dp/dt (inotropism) before,mongrel cats; 1.00 mg/kg i.v.,6983 mm.Hg/sec
same,heart frequency before,mongrel cats; 1.00 mg/kg i.v.,166.7 min⁻¹
same,blood pressure WD,mongrel cats; 1.00 mg/kg i.v.,16.0 min
same,blood pressure after,mongrel cats; 1.00 mg/kg i.v.,69.2 mm.Hg
same,blood pressure Δ,mongrel cats; 1.00 mg/kg i.v.,-27.3 mm.Hg
same,dp/dt (inotropism) after,mongrel cats; 1.00 mg/kg i.v.,7583 mm.Hg/sec
same,dp/dt (inotropism) Δ,mongrel cats; 1.00 mg/kg i.v.,+600 mm.Hg/sec
same,heart frequency after,mongrel cats; 1.00 mg/kg i.v.,174.3 min⁻¹
same,heart frequency Δ,mongrel cats; 1.00 mg/kg i.v.,+7.6 min^-1
same,blood pressure before,mongrel cats; 2.50 mg/kg i.v.,92.5 mm.Hg
same,dp/dt (inotropism) before,mongrel cats; 2.50 mg/kg i.v.,6450 mm.Hg/sec
same,heart frequency before,mongrel cats; 2.50 mg/kg i.v.,162.0 min⁻¹
same,blood pressure WD,mongrel cats; 2.50 mg/kg i.v.,> 10 min
same,blood pressure after,mongrel cats; 2.50 mg/kg i.v.,60.7 mm.Hg
same,blood pressure Δ,mongrel cats; 2.50 mg/kg i.v.,-31.8 mm.Hg
same,dp/dt (inotropism) after,mongrel cats; 2.50 mg/kg i.v.,7567 mm.Hg/sec
same,dp/dt (inotropism) Δ,mongrel cats; 2.50 mg/kg i.v.,+1117 mm.Hg/sec
same,heart frequency after,mongrel cats; 2.50 mg/kg i.v.,170.7 min⁻¹
same,blood pressure after,narcotised guinea pigs; 0.25 mg/kg i.v.,57.0 ± 2.10 mm.Hg
same,blood pressure Δ,narcotised guinea pigs; 0.25 mg/kg i.v.,-11.70 mm.Hg
same,blood pressure Δ,narcotised guinea pigs; 1.00 mg/kg i.v.,-19.70 mm.Hg
same,blood pressure Δ,narcotised guinea pigs; 2.50 mg/kg i.v.,-29.00 mm.Hg
